Assay results: US9776995B2, “Bicyclic sulfonamide compounds as sodium channel inhibitors” (AMGEN INC., priority 2013, dated 2017)

Amino acid sequences for entries named in this document (tags omitted).
UniProt Q15858, whole entry: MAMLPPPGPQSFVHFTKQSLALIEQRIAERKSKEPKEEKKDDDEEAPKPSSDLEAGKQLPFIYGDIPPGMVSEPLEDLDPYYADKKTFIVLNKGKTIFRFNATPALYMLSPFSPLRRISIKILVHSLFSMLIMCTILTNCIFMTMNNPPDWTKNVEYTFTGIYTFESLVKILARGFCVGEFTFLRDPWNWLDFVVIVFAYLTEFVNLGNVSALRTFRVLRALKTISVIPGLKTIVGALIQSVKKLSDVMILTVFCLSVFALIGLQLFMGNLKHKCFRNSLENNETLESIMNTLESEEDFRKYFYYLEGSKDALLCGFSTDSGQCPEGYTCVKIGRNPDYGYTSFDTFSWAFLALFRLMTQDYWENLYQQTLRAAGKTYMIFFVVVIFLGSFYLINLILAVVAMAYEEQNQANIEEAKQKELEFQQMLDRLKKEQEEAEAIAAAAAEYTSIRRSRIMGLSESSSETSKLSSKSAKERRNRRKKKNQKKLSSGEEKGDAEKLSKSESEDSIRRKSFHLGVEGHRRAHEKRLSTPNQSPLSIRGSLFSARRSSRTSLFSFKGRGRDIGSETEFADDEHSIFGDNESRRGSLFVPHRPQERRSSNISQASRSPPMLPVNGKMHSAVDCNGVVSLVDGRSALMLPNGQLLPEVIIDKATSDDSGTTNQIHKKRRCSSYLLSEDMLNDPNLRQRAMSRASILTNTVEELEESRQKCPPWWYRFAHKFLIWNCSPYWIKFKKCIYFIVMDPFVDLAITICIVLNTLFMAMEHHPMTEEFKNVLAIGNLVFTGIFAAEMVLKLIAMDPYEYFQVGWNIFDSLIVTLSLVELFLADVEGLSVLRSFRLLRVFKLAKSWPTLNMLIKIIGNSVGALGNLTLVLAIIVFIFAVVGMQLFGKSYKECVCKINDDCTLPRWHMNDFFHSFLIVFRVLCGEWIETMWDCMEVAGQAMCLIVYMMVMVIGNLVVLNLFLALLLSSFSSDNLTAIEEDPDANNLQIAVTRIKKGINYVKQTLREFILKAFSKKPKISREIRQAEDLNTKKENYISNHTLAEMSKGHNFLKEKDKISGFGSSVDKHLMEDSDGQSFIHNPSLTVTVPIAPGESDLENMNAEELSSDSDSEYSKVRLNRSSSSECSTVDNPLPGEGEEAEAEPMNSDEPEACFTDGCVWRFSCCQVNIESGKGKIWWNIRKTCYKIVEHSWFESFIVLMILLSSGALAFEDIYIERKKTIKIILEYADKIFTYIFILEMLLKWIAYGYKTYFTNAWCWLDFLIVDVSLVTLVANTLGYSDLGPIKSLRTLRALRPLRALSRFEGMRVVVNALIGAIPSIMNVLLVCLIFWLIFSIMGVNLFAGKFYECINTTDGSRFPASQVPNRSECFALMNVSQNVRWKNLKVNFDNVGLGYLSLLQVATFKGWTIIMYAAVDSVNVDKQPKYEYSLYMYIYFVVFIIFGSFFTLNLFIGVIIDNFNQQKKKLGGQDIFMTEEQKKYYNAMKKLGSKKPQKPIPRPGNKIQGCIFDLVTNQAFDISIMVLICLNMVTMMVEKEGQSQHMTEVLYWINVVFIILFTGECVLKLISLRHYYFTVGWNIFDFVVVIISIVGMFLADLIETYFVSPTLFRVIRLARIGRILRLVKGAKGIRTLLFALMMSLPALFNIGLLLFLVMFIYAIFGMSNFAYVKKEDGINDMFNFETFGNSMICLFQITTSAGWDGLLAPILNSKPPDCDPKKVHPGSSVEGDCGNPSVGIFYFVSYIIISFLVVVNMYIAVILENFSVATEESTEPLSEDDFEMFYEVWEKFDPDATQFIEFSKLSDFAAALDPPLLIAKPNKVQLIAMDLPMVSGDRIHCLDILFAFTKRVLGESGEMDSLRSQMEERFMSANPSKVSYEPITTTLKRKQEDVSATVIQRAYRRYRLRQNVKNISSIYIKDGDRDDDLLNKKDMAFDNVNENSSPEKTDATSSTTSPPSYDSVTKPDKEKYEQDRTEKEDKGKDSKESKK

Columns and labels:
Nav 1.7 [1] = target: T1, Nav 1.7 (Homo sapiens (Human), UniProt Q15858); experiment: Nav 1.7 in vitro PX assay (PatchXpress whole cell voltage clamp); type: cell-based; conditions: read-out: Nav 1.7 PX IC50;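 further: holding potential set for 20 to 50% inactivation, sodium current evoked by a 20 ms step to −10 mV, peak current inhibition read after compound exposure, 3–5 cells per concentration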
Nav 1.7 [2] = target: T1, Nav 1.7; experiment: in-vitro Nav 1.7 PX data; type: cell-based; conditions: read-out: Nav 1.7 PX IC50

COc1cc(-c2ccc(Cl)c(C)c2)c(Cl)cc1-c1ncnc2cc(S(=O)(=O)Nc3ncccn3)ccc12
IC50 (Nav 1.7 [1]): 87 nM

COc1cc(-c2ccc(Cl)c(C)c2)c(C)cc1-c1ncnc2cc(S(=O)(=O)Nc3ncccn3)ccc12
IC50 (Nav 1.7 [1]; HEK 293 cells stably transfected with human Nav1.7, PatchXpress, partially inactivated state): 104 nM

COc1cc(-c2cccc(C(F)(F)F)c2)c(C#N)cc1-c1nccc2cc(S(=O)(=O)Nc3ccon3)ccc12
IC50 (Nav 1.7 [2]): 25.8 nM
